Source: ChEMBL document CHEMBL1129321, “Discovery of an orally active non-peptide fibrinogen receptor antagonist” (J Med Chem, 1996)

Species on record: Homo sapiens
Assay: Inhibitory activity against aggregation of human platelets
Assay type: functional, organism-based
Method in brief: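 Human platelets were gel-filtered from PRP on Sepharose 2B and used at 3 × 10⁸ platelets/mL with 1 mg/mL fibrinogen. Compounds were added at 37 °C 2 min before activation with 10 µM ADP, with stirring at 1000 rpm at 37 °C. Aggregation was read as the maximal increase in light transmittance. IC50 is the mean over GFP from two to six donors.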

IC50: 100 µM
SMILES: N=C(N)NCCC[C@H](N)C(=O)NCC(=O)N[C@@H](CC(=O)O)C(=O)N[C@@H](CO)C(=O)O
